Our source for the EC50 values is patent US10023561B2, “Fumagillol heterocyclic compounds and methods of making and using same” (Zafgen, Inc., priority 2015, dated 2018).

Each structure is given as a SMILES string. Where a name gives a salt, the structure may show the parent alone. A value given as a limit tells only on which side of the number the result lay.

This test deals with human fibrosarcoma cell line HT-1080. Kind of test: HT-1080 cell proliferation assay (CellTiter-Glo, 72 hours). The conditions noted are these: HT-1080, 72 h, read-out: HT-1080 EC50 (nM). Format: cell-based. On the technique in general: Cellular ATP, detected with luciferase, serves as a proxy for viable cell number.

For orientation: EC50 means the concentration needed to bring the measured effect to its halfway point. On to `CO[C@@H]1[C@H](OC(=O)N2CC(CCC3CCN(CC(F)F)CC3)C2)CC[C@]2(CO2)[C@H]1[C@@]1(C)O[C@@H]1CC=C(C)C` [Example 91, (3R,4S,5S,6R)-5-methoxy-4-((2R,3R)-2-methyl-3-(3-methylbut-2-enyl)oxiran-2-yl)-1-oxaspiro[2.5]octan-6-yl 3-(2-(1-(2,2-difluoroethyl)piperidin-4-yl)ethyl)azetidine-1-carboxylate formate], for which the EC50 was 0.3 to 1.3 nM.
`CO[C@@H]1[C@H](OC(=O)N2CC(Cc3ccc(C)nc3)C2)CC[C@]2(CO2)[C@H]1[C@@]1(C)O[C@@H]1CC=C(C)C` [Example 101, (3R,4S,5S,6R)-5-methoxy-4-((2R,3R)-2-methyl-3-(3-methylbut-2-enyl)oxiran-2-yl)-1-oxaspiro[2.5]octan-6-yl 3-((6-methylpyridin-3-yl)methyl)azetidine-1-carboxylate]: the EC50 is 0.3 to 1.3 nM.
The figure for `CO[C@@H]1[C@H](OC(=O)N2CC(CCN3CCOCC3)C2)CC[C@]2(CO2)[C@H]1[C@@]1(C)O[C@@H]1CC=C(C)C` [Example 1, (3R,4S,5S,6R)-5-methoxy-4-((2R,3R)-2-methyl-3-(3-methylbut-2-en-1-yl)oxiran-2-yl)-1-oxaspiro[2.5]octan-6-yl 3-(2-morpholinoethyl)azetidine-1-carboxylate] is less than 0.3 nM; for `CO[C@@H]1[C@H](OC(=O)N2CC(OC(=O)N3CCN(C)CC3)C2)CC[C@]2(CO2)[C@H]1[C@@]1(C)O[C@@H]1CC=C(C)C` [Example 78, 1-(((3R,4S,5S,6R)-5-methoxy-4-((2R,3R)-2-methyl-3-(3-methylbut-2-enyl)oxiran-2-yl)-1-oxaspiro[2.5]octan-6-yloxy)carbonyl)azetidin-3-yl 4-methylpiperazine-1-carboxylate] it is 0.3 to 1.3 nM; for `CO[C@@H]1[C@H](OC(=O)N2CC(OC(=O)N3CCN(CC(F)(F)F)CC3)C2)CC[C@]2(CO2)[C@H]1[C@@]1(C)O[C@@H]1CC=C(C)C` [Example 81, 1-(((3R,4S,5S,6R)-5-methoxy-4-((2R,3R)-2-methyl-3-(3-methylbut-2-enyl)oxiran-2-yl)-1-oxaspiro[2.5]octan-6-yloxy)carbonyl)azetidin-3-yl 4-(2,2,2-trifluoroethyl)piperazine-1-carboxylate] it is 0.3 to 1.3 nM.
Turning to `CO[C@@H]1[C@H](OC(=O)N2CC(OC(=O)N3CCOCC3)C2)CC[C@]2(CO2)[C@H]1[C@@]1(C)O[C@@H]1CC=C(C)C` [Example 71, 1-(((3R,4S,5S,6R)-5-methoxy-4-((2R,3R)-2-methyl-3-(3-methylbut-2-enyl)oxiran-2-yl)-1-oxaspiro[2.5]octan-6-yloxy)carbonyl)azetidin-3-yl morpholine-4-carboxylate formate], the EC50 was less than 0.3 nM.
On to `CCN(CC)CCCC1CN(C(=O)O[C@@H]2CC[C@]3(CO3)[C@@H]([C@@]3(C)O[C@@H]3CC=C(C)C)[C@@H]2OC)C1` [Example 104, (3R,4S,5S,6R)-5-methoxy-4-((2R,3R)-2-methyl-3-(3-methylbut-2-enyl)oxiran-2-yl)-1-oxaspiro[2.5]octan-6-yl 3-(3-(diethylamino)propyl)azetidine-1-carboxylate], for which the EC50 is less than 0.3 nM.
For `CO[C@@H]1[C@H](OC(=O)/C=C/c2ccc(OCCN(C)C)cc2)CC[C@]2(CO2)[C@H]1[C@@]1(C)O[C@@H]1CC=C(C)C` [compound A, [(3R,6R,7S,8S)-7-methoxy-8-[(2R,3R)-2-methyl-3-(3-methylbut-2-enyl)oxiran-2-yl]-2-oxaspiro[2.5]octan-6-yl] (E)-3-[4-[2-(dimethylamino)ethoxy]phenyl]prop-2-enoate, reference compound] the value was 0.3 to 1.3 nM.
The figure for `CO[C@@H]1[C@H](OC(=O)N2CC(CCN3CC(F)(F)C3)C2)CC[C@]2(CO2)[C@H]1[C@@]1(C)O[C@@H]1CC=C(C)C` [Example 2, (3R,4S,5S,6R)-5-methoxy-4-((2R,3R)-2-methyl-3-(3-methylbut-2-enyl)oxiran-2-yl)-1-oxaspiro[2.5]octan-6-yl 3-(2-(3,3-difluoroazetidin-1-yl)ethyl)azetidine-1-carboxylate] is less than 0.3 nM.
